Results reported in patent US10208083B2 (priority 2015, dated 2019).
Marks after values point to notes of the source that are not given here.

Tests used:
[1] = tested on: murine P388 lymphocytic leukemia; experiment: Antileukemic activity against P388 in vivo; parameters: species or system mice; note: test concentration or dose not given here
[2] = tested on: SCOV-3 human ovarian cancer; experiment: Antitumor activity against SCOV-3 xenograft in vivo; for OS % on Day-70: test concentration or dose not given here; for PFS % on Day-70: test concentration or dose not given here; settings: BALB/c scid mice, s.c. SCOV-3, i.p. LD10/4 on days 1, 5, 9
C57Bl/6 mice = experiment: In vivo acute toxicity (lethality); settings: single i.p. injection, C57Bl/6 female mice, observed 30 days, estimated graphically

O=C(O)CCOc1ccc(N(CCCl)CCCl)cc1
T/C % ([1]; MST treated vs saline controls, single i.p. dose at LD10 on Day 1, p < 0.001): 211* %
MST ± SD ([1]; median survival time, BALB/c scid mice, i.p. P388, single i.p. dose at LD10 on Day 1): 19 days
Cures ([1]; mice alive for 90 days after tumor inoculation, single i.p. dose at LD10 on Day 1): 0/6
OS % on Day-70 ([2]; percentage of survivors): 40%
TI % at Day-35 ([2]; tumor inhibition): 17%
PFS % on Day-70 ([2]; tumor progression free survivors): 0%
LD10 (C57Bl/6 mice): 15 mg/kg
